Source: patent publication US11401286B2 (Tetra Discovery Partners, LLC, priority 2012, dated 2022)

Tests used:
[1] = system: human PDE4D7 containing UCR1 activating mutation S54D (PDE4D7*); conditions: for Selectivity PDE4 isoforms B*/D*: ratio PDE4B1*/PDE4D7*
[2] = target: human PDE4D7 containing UCR1 activating mutation S54D (PDE4D7*) (Homo sapiens (Human), UniProt Q08499, S129D); assay: biochemical

| Compound | Selectivity PDE4 isoforms B*/D* [1] | IC50 [2] [µM] | Selectivity PDE4 isoforms D/D* ([1]; ratio PDE4D7/PDE4D7*) |
| --- | --- | --- | --- |
| O=C(O)Cc1ccc(Nc2nc(-c3cccc(Cl)c3)nc(C3CC3)n2)cc1 [Example 36, 2-(4-((4-(3-chlorophenyl)-6-cyclopropyl-1,3,5-triazin-2-yl)amino)phenyl)acetic acid] | − (− indicates a selectivity of ≤10×) | > 1 | – |
| O=C(O)Cc1ccc(Oc2nc(-c3ccc(Cl)cc3)nc(C3CC3)n2)cc1 [Example 44, 2-(4-((4-(4-chlorophenyl)-6-cyclopropyl-1,3,5-triazin-2-yl)oxy)phenyl)acetic acid] | − (− indicates a selectivity of ≤10×) | > 1 | – |
| CCc1nc(Nc2ccc(C(C)(C)C(=O)O)cc2)nc(-c2cccc(Cl)c2)n1 [Example 60, 2-(4-(4-(3-chlorophenyl)-6-ethyl-1,3,5-triazin-2-ylamino)phenyl)-2-methylpropanoic] | − (− indicates a selectivity of ≤10×) | < 1 | – |
| NC(=O)Cc1ccc(Nc2nc(-c3cccc(Cl)c3)nc3c2CCC3)cc1 [Example 21, 2-[4-[[2-(3-chlorophenyl)-6,7-dihydro-5H-cyclopenta[d]pyrimidin-4-yl]amino]phenyl]acetamide] | – | < 1 | + (+ indicates a selectivity of the given ratio of isoforms of >10×) |
